Laboratory results published in ChEMBL document CHEMBL1134834, “Quinoxalinylethylpyridylthioureas (QXPTs) as potent non-nucleoside HIV-1 reverse transcriptase (RT) inhibitors. Further SAR studies and identification of a novel orally bioavailable hydrazine-based antiviral agent” (J Med Chem, 2001).

Molecular target: Human immunodeficiency virus type 1 reverse transcriptase (Human immunodeficiency virus 1, UniProt Q72547)
Experiment: Inhibition of HIV-1 wild-type RT

Compound	Ki [nM]
S=C(NCCOc1nc2cc(Cl)ccc2n2cccc12)Nc1ccc(Br)cn1	53
O=C(NNc1nc2ccccc2n2cccc12)Nc1ccc(Br)cn1	2600
